# Experiments:
# [1] = SAXS measurement of the internal structure of the core (Philips PW-1830); format: physicochemical
# Method: (§1) The hydrodynamic diameters, furthermore the zeta potential were determined by a HORIBA SZ-100 type dynamic light scattering measuring device. The SAXS measurements (Philips PW-1830) were applied for the investigation of the internal structure of the core and the composites. Considering that this latter method investigates the size range corresponding to the reciprocal of this scattering vector, this can not be identical with the hydrodynamic diameters given by the light scattering measurements. The diameters determined by SAXS measurements thus relate only to the size of the protein (BSA).
# [2] = dynamic light scattering: hydrodynamic diameter and zeta potential (HORIBA SZ-100); format: physicochemical
# Method: The sizes of the protein (approx. 4 nm), the KYNA, the PAH (approx. 9 nm) the BSA/KYNA (approx. 20 nm), furthermore the BSA/KYNA/PAH (approx. 100 nm) composite were determined by dynamic lights scattering measurements (DLS). The size of the composites prepared at neutral pH falling into the nanometer range ensures the crossing of the blood-brain barrier by the active ingredients (FIG. 3).
# as §1
substance,measurement,setting,value
bovine serum albumin [BSA],SAXS D (size of the internal structure of the core),[1],8 nm
same,DLS ζ (zeta potential),[2],−1.1 mV
same,size determined by dynamic light scattering measurements (DLS),"[2]; approx., neutral pH",approx. 4 nm
same,DLS d (hydrodynamic diameter),[2]; dynamic light scattering,3.8 nm
